The nature of test [1]: Inhibition of bovine recombinant PI3Kgamma expressed in baculovirus-infected Sf21 cells. Set-up: species or system Bos taurus.
In test [2] the target is Phosphatidylinositol 4,5-bisphosphate 3-kinase catalytic subunit beta isoform (Homo sapiens, UniProt P42338). The test is described as follows: Inhibition of human recombinant PI3Kbeta expressed in baculovirus-infected Sf21 cells.

Sequences of proteins named here, by UniProt entry; tags and fusion partners are left off. A change or cut given only in a name is not applied to a line headed by its entry.
UniProt P42338: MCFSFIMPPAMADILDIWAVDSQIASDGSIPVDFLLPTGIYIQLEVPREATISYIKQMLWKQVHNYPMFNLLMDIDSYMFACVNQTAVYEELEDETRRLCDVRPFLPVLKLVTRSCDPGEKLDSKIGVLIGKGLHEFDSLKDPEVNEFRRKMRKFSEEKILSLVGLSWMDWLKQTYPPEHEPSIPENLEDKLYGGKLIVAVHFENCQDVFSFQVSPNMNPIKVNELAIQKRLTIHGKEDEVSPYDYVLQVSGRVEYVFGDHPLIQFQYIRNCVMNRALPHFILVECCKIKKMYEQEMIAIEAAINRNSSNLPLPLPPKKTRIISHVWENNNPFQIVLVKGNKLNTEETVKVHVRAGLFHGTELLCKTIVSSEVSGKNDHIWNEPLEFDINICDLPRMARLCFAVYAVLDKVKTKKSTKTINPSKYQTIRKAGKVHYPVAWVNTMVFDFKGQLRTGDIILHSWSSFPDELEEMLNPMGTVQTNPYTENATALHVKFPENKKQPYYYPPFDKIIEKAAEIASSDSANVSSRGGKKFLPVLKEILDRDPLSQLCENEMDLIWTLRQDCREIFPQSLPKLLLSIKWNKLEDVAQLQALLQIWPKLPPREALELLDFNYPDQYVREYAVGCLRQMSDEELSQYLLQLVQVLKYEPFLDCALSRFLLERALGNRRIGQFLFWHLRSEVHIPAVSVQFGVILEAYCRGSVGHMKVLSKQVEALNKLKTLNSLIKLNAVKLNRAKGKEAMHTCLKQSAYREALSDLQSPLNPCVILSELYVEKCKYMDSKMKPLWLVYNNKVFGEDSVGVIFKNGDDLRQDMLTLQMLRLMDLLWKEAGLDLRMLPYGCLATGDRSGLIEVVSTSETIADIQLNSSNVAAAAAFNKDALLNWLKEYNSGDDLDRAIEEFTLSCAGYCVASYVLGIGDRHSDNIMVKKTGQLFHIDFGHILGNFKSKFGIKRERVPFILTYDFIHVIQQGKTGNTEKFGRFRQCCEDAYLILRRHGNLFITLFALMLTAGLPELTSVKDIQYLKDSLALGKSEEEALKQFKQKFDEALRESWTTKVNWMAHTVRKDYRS

In the case of `O=c1cc(N2CCOCC2)oc2c(-c3ccccc3)cccc12` [LY-294002], the concentration for half-maximal inhibition (IC50) in test [1] worked out at 7 µM; in test [2], 0.9 µM.

As a reminder, the IC50 is the concentration at which inhibition is half-maximal.

The record behind these values is ChEMBL document CHEMBL1156056, “Phosphoinositide-3-kinase (PI3K) inhibitors: identification of new scaffolds using virtual screening” (Bioorg Med Chem Lett, 2009).
